The entries are a selection whose mix differs from that of the whole data set. Activity calls are given as the source filed them. Calls follow the shape of the dose curve; as a rule, active = well fitted inhibition curve with a large enough effect; inconclusive = small, poorly fitted or top-dose-only effect; inactive = no such curve, though single readings can be large or run the other way.
Each compound was assayed against Phosphoglycerate kinase, glycosomal (Trypanosoma brucei brucei) (UniProt P07378) (assay: qHTS Assay to Find Inhibitors of Phosphoglycerate Kinase). Conditions: PGK/GAPDH coupled, Kinase-Glo luminescence, 60 min; activity change, negative = inhibition: at 57.5 µM (top of the series).
From the text: Several species of the Trypanosomatidae family of parasitic protozoans cause a spectrum of diseases throughout the tropical and subtropical world. Sleeping sickness, caused by two subspecies of Trypanosoma brucei, is endemic to areas of sub-Saharan Africa, while Chagas disease, a manifestation of Trypanosoma cruzi infection, is prevalent throughout Central and South America. In addition, many species of Leishmania are responsible for a range of cutaneous and visceral diseases, causing ulcers, destructive lesions and kalaazar, a lethal infection of the viscera. Collectively, these organisms infect 30 million people worldwide (~500 million live in endemic areas), and account for ~130,000 deaths annually. Given their debilitating and prevalent nature, trypanosomatid parasites impose a heavy medical, economic and social burden on entire populations, primarily in the developing world. […]
3ul of substrate/PGK buffer (columns 1,2,5-48) are dispensed into Greiner white solid bottom 1536-well assay plates; columns 3-4 receive only TEA buffer as 0x PGK controls. […] Kinase-Glo Plus reagent is added (2ul) and plates incubated for 10 minutes, before being transferred to a ViewLux high-throughput CCD imager (PerkinElmer) wherein single end-point measurements of luminescence are acquired using a clear filter. […]
% is scaled to controls: 0 for no effect and ±100 for the full control effect.
Also: nearly all actives have a fitted effect of over 60% in size.

SMILES	activity change, negative = inhibition
CCC(=O)N(c1ccccc1)C1(COC)CCN(CCn2nnn(CC)c2=O)CC1	inactive: 4.18%
CCC(=O)N(c1ccccc1)C1(COC)CCN(CCc2cccs2)CC1	inactive

— PubChem BioAssay AID602233 (National Center for Advancing Translational Sciences (NCATS), 2012)
